The values below come from BindingDB's records for doi:10.1021/jm000013n (The University of Queensland, 2000).

The test can be described thus: Inhibition of virion associated RT activity relative to untreated, infected control in MT2 cells infected with HIV-1 237288 strain.

In general, IC50 refers to the midpoint of a concentration-inhibition curve. A lower IC50 goes with greater potency in that assay. Consider `CC(C)CN(C[C@@H](O)[C@H](Cc1ccccc1)NC(=O)O[C@H]1CCOC1)S(=O)(=O)c1ccc(N)cc1` [VX-478], for which the concentration for half-maximal inhibition (IC50) amounted to 30 nM.
